# Values joined by “and” are separate entries in the source; they are usually repeats but may differ in a detail not shown here. Identical values can stand only once.
# Key:
# [1] = Pharmacokinetic Study on Silodosin (Study 98364); format: in vivo, human; details: 4 mg once daily 7 days, individual subjects
# Source text: The remaining two subjects in each dosing cohort received placebo.
# [2] = Pharmacokinetic Study on Silodosin (Study US011), once daily for seven days, fed state
smiles,measurement,setting,value
C[C@H](Cc1cc2c(c(C(N)=O)c1)N(CCCO)CC2)NCCOc1ccccc1OCC(F)(F)F [Silodosin],Blood Plasma Concentrations,"[1]; Day 7, 0 h (t0)",4.64 ng/mL and 6.03 ng/mL and 6.36 ng/mL and 2.77 ng/mL and 3.35 ng/mL
same,Blood Plasma Concentrations,"[1]; Day 7, 0.25 h",4.89 ng/mL and 5.28 ng/mL and 7.06 ng/mL and 2.76 ng/mL and 3.35 ng/mL
same,Blood Plasma Concentrations,"[1]; Day 7, 0.5 h",4.51 ng/mL and 5.10 ng/mL and 11.82 ng/mL and 3.49 ng/mL and 2.93 ng/mL
same,Blood Plasma Concentrations,"[1]; Day 7, 1 h",15.95 ng/mL and 29.55 ng/mL and 31.27 ng/mL and 13.96 ng/mL and 15.35 ng/mL
same,Blood Plasma Concentrations,"[1]; Day 7, 2 h",37.80 ng/mL and 39.99 ng/mL and 20.57 ng/mL and 23.58 ng/mL
same,Blood Plasma Concentrations,"[1]; Day 7, 3 h",16.81 ng/mL and 24.30 ng/mL and 12.39 ng/mL and 14.33 ng/mL
same,Blood Plasma Concentrations,"[1]; Day 7, 4 h",13.36 ng/mL and 15.36 ng/mL and 8.36 ng/mL and 11.22 ng/mL
same,Blood Plasma Concentrations,"[1]; Day 7, 5 h",11.12 ng/mL and 12.59 ng/mL and 7.29 ng/mL and 7.42 ng/mL
same,Blood Plasma Concentrations,"[1]; Day 7, 6 h",8.57 ng/mL and 8.60 ng/mL and 4.72 ng/mL and 5.52 ng/mL
same,Blood Plasma Concentrations,"[1]; Day 7, 8 h",6.58 ng/mL and 6.13 ng/mL and 4.58 ng/mL and 3.83 ng/mL
same,Blood Plasma Concentrations,"[1]; Day 7, 12 h",4.54 ng/mL and 4.46 ng/mL and 4.01 ng/mL and 2.09 ng/mL and 1.44 ng/mL
same,Blood Plasma Concentrations,"[1]; Day 7, 24 h",2.02 ng/mL and 3.38 ng/mL and 2.98 ng/mL and 1.15 ng/mL and 0.50 ng/mL
same,Blood Plasma Concentrations,"[2]; 4 mg once daily 7 days, time 0.0 h (Day 1), individual subjects",0.00 ng/mL
same,Blood Plasma Concentrations,"[2]; 4 mg once daily 7 days, time 0.0 h (Day 1), mean",0.00 ng/mL
same,Blood Plasma Concentrations,"[2]; 4 mg once daily 7 days, time 0.3 h, individual subjects",0.00 ng/mL
same,Blood Plasma Concentrations,"[2]; 4 mg once daily 7 days, time 0.3 h, mean",0.00 ng/mL
same,Blood Plasma Concentrations,"[2]; 4 mg once daily 7 days, time 0.5 h, individual subjects",0.00 ng/ml (4×) and 1.48 ng/ml and 1.43 ng/ml and 0.51 ng/ml and 5.48 ng/ml and 0.59 ng/ml
same,Blood Plasma Concentrations,"[2]; 4 mg once daily 7 days, time 0.5 h, mean",1.05 ng/mL
same,Blood Plasma Concentrations,"[2]; 4 mg once daily 7 days, time 1.0 h, individual subjects",2.09 ng/mL and 23.99 ng/mL and 12.07 ng/mL and 15.32 ng/mL and 5.75 ng/mL and 21.73 ng/mL and 3.77 ng/mL and 0.52 ng/mL and 3.16 ng/mL
same,Blood Plasma Concentrations,"[2]; 4 mg once daily 7 days, time 1.0 h, mean",9.82 ng/mL
same,Blood Plasma Concentrations,"[2]; 4 mg once daily 7 days, time 1.5 h, individual subjects",21.09 ng/mL and 27.06 ng/mL and 12.49 ng/mL and 31.22 ng/mL and 11.36 ng/mL and 33.78 ng/mL and 14.50 ng/mL and 3.65 ng/mL and 6.54 ng/mL
same,Blood Plasma Concentrations,"[2]; 4 mg once daily 7 days, time 1.5 h, mean",17.97 ng/mL
same,Blood Plasma Concentrations,"[2]; 4 mg once daily 7 days, time 2.0 h, individual subjects",39.89 ng/mL and 20.22 ng/mL and 12.40 ng/mL and 39.39 ng/mL and 13.54 ng/mL and 40.29 ng/mL and 16.22 ng/mL and 11.16 ng/mL and 31.67 ng/mL
same,Blood Plasma Concentrations,"[2]; 4 mg once daily 7 days, time 2.0 h, mean",24.98 ng/mL
same,Blood Plasma Concentrations,"[2]; 4 mg once daily 7 days, time 3.0 h, individual subjects",21.82 ng/mL and 12.50 ng/mL and 11.54 ng/mL and 35.57 ng/mL and 13.29 ng/mL and 30.14 ng/mL and 19.72 ng/mL and 20.28 ng/mL and 35.31 ng/mL
same,Blood Plasma Concentrations,"[2]; 4 mg once daily 7 days, time 3.0 h, mean",22.24 ng/mL
same,Blood Plasma Concentrations,"[2]; 4 mg once daily 7 days, time 4.0 h, individual subjects",20.90 ng/mL and 9.70 ng/mL and 9.88 ng/mL and 26.51 ng/mL and 12.01 ng/mL and 17.04 ng/mL and 15.06 ng/mL and 15.53 ng/mL and 20.33 ng/mL
same,Blood Plasma Concentrations,"[2]; 4 mg once daily 7 days, time 4.0 h, mean",16.33 ng/mL
same,Blood Plasma Concentrations,"[2]; 4 mg once daily 7 days, time 6.0 h, individual subjects",7.15 ng/mL and 4.71 ng/mL and 5.52 ng/mL and 10.22 ng/mL and 6.99 ng/mL and 6.78 ng/mL and 6.49 ng/mL and 6.74 ng/mL and 5.45 ng/mL
same,Blood Plasma Concentrations,"[2]; 4 mg once daily 7 days, time 6.0 h, mean",6.67 ng/mL
same,Blood Plasma Concentrations,"[2]; 4 mg once daily 7 days, time 12.0 h, individual subjects",2.41 ng/mL and 2.80 ng/mL and 3.23 ng/mL and 4.00 ng/mL and 2.70 ng/mL and 4.93 ng/mL and 3.50 ng/mL and 3.57 ng/mL and 1.81 ng/mL
same,Blood Plasma Concentrations,"[2]; 4 mg once daily 7 days, time 12.0 h, mean",3.22 ng/mL
same,Blood Plasma Concentrations,"[2]; 4 mg once daily 7 days, time 16.0 h, individual subjects",1.53 ng/mL and 2.54 ng/mL and 2.46 ng/mL and 3.12 ng/mL and 1.84 ng/mL and 3.64 ng/mL and 2.62 ng/mL and 2.87 ng/mL and 1.26 ng/mL
same,Blood Plasma Concentrations,"[2]; 4 mg once daily 7 days, time 16.0 h, mean",2.43 ng/mL
same,Blood Plasma Concentrations,"[2]; 4 mg once daily 7 days, time 24.0 h, individual subjects",1.04 ng/mL and 1.42 ng/mL and 1.98 ng/mL and 3.01 ng/mL and 2.04 ng/mL and 3.07 ng/mL and 1.59 ng/mL and 1.83 ng/mL and 1.09 ng/mL
same,Blood Plasma Concentrations,"[2]; 4 mg once daily 7 days, time 24.0 h, mean",1.90 ng/mL
same,Blood Plasma Concentrations,"[2]; 4 mg once daily 7 days, time 48.0 h, individual subjects",1.44 ng/mL and 2.05 ng/mL and 2.52 ng/mL and 4.68 ng/mL and 2.32 ng/mL and 4.43 ng/mL and 1.90 ng/mL and 1.46 ng/mL and 1.31 ng/mL
same,Blood Plasma Concentrations,"[2]; 4 mg once daily 7 days, time 48.0 h, mean",2.46 ng/mL
same,Blood Plasma Concentrations,"[2]; 4 mg once daily 7 days, time 72.0 h, individual subjects",1.60 ng/mL and 1.01 ng/mL and 0.90 ng/mL and 0.67 ng/mL and 1.75 ng/mL and 3.43 ng/mL and 1.99 ng/mL and 2.21 ng/mL and 1.07 ng/mL
same,Blood Plasma Concentrations,"[2]; 4 mg once daily 7 days, time 72.0 h, mean",1.63 ng/mL
same,Blood Plasma Concentrations,"[2]; 4 mg once daily 7 days, time 96.0 h, individual subjects",1.61 ng/mL and 0.84 ng/mL and 1.56 ng/mL and 0.91 ng/mL and 1.37 ng/mL and 2.28 ng/mL and 1.41 ng/mL and 2.65 ng/mL and 1.16 ng/mL
same,Blood Plasma Concentrations,"[2]; 4 mg once daily 7 days, time 96.0 h, mean",1.53 ng/mL
same,Blood Plasma Concentrations,"[2]; 4 mg once daily 7 days, time 120.0 h, individual subjects",2.12 ng/mL and 1.05 ng/mL and 1.64 ng/mL and 0.00 ng/mL and 2.73 ng/mL and 4.09 ng/mL and 2.01 ng/mL and 3.22 ng/mL and 1.78 ng/mL
same,Blood Plasma Concentrations,"[2]; 4 mg once daily 7 days, time 120.0 h, mean",2.07 ng/mL
same,Blood Plasma Concentrations,"[2]; 4 mg once daily 7 days, time 144.0 h (Day 7), individual subjects",1.05 ng/mL and 1.03 ng/mL and 1.84 ng/mL and 1.53 ng/mL and 0.99 ng/mL and 3.79 ng/mL and 2.12 ng/mL and 2.58 ng/mL and 0.63 ng/mL
same,Blood Plasma Concentrations,"[2]; 4 mg once daily 7 days, time 144.0 h (Day 7), mean",1.73 ng/mL
same,Blood Plasma Concentrations,"[2]; 4 mg once daily 7 days, time 144.3 h, individual subjects",1.04 ng/mL and 1.27 ng/mL and 2.01 ng/mL and 1.15 ng/mL and 1.28 ng/mL and 4.21 ng/mL and 2.06 ng/mL and 2.65 ng/mL and 0.57 ng/mL
same,Blood Plasma Concentrations,"[2]; 4 mg once daily 7 days, time 144.3 h, mean",1.80 ng/mL
same,Blood Plasma Concentrations,"[2]; 4 mg once daily 7 days, time 144.5 h, individual subjects",0.97 ng/mL and 1.74 ng/mL and 2.01 ng/mL and 2.41 ng/mL and 2.44 ng/mL and 4.55 ng/mL and 5.94 ng/mL and 4.65 ng/mL and 0.55 ng/mL
same,Blood Plasma Concentrations,"[2]; 4 mg once daily 7 days, time 144.5 h, mean",2.81 ng/mL
same,Blood Plasma Concentrations,"[2]; 4 mg once daily 7 days, time 145.0 h, individual subjects",4.94 ng/mL and 6.64 ng/mL and 2.82 ng/mL and 19.16 ng/mL and 8.61 ng/mL and 12.10 ng/mL and 17.17 ng/mL and 15.90 ng/mL and 0.57 ng/mL
same,Blood Plasma Concentrations,"[2]; 4 mg once daily 7 days, time 145.0 h, mean",9.77 ng/mL
same,Blood Plasma Concentrations,"[2]; 4 mg once daily 7 days, time 145.5 h, individual subjects",11.96 ng/mL and 18.00 ng/mL and 15.00 ng/mL and 28.69 ng/mL and 13.30 ng/mL and 26.92 ng/mL and 15.97 ng/mL and 41.93 ng/mL and 2.02 ng/mL
same,Blood Plasma Concentrations,"[2]; 4 mg once daily 7 days, time 145.5 h, mean",19.31 ng/mL
same,Blood Plasma Concentrations,"[2]; 4 mg once daily 7 days, time 146.0 h, individual subjects",15.50 ng/mL and 30.03 ng/mL and 69.31 ng/mL and 23.50 ng/mL and 26.51 ng/mL and 47.01 ng/mL and 18.75 ng/mL and 43.97 ng/mL and 8.78 ng/mL
same,Blood Plasma Concentrations,"[2]; 4 mg once daily 7 days, time 146.0 h, mean",31.48 ng/mL
same,Blood Plasma Concentrations,"[2]; 4 mg once daily 7 days, time 147.0 h, individual subjects",18.27 ng/mL and 32.65 ng/mL and 71.33 ng/mL and 12.94 ng/mL and 21.81 ng/mL and 63.28 ng/mL and 20.07 ng/mL and 21.68 ng/mL and 30.01 ng/mL
same,Blood Plasma Concentrations,"[2]; 4 mg once daily 7 days, time 147.0 h, mean",32.45 ng/mL
same,Blood Plasma Concentrations,"[2]; 4 mg once daily 7 days, time 148.0 h, individual subjects",15.60 ng/mL and 15.37 ng/mL and 38.58 ng/mL and 8.07 ng/mL and 11.71 ng/mL and 37.69 ng/mL and 19.03 ng/mL and 11.61 ng/mL and 18.36 ng/mL
same,Blood Plasma Concentrations,"[2]; 4 mg once daily 7 days, time 148.0 h, mean",19.56 ng/mL
same,Blood Plasma Concentrations,"[2]; 4 mg once daily 7 days, time 150.0 h, individual subjects",7.06 ng/ml (2×) and 6.54 ng/ml and 8.23 ng/ml and 5.23 ng/ml and 6.84 ng/ml and 14.41 ng/ml and 8.27 ng/ml and 7.33 ng/ml
same,Blood Plasma Concentrations,"[2]; 4 mg once daily 7 days, time 150.0 h, mean",7.89 ng/mL
same,Blood Plasma Concentrations,"[2]; 4 mg once daily 7 days, time 152.0 h, individual subjects",5.75 ng/mL and 4.22 ng/mL and 5.51 ng/mL and 4.33 ng/mL and 4.88 ng/mL and 10.17 ng/mL and 5.60 ng/mL and 7.43 ng/mL and 5.50 ng/mL
same,Blood Plasma Concentrations,"[2]; 4 mg once daily 7 days, time 152.0 h, mean",5.93 ng/mL
same,Blood Plasma Concentrations,"[2]; 4 mg once daily 7 days, time 156.0 h, individual subjects",3.27 ng/mL and 2.01 ng/mL and 2.60 ng/mL and 2.44 ng/mL and 2.77 ng/mL and 6.17 ng/mL and 3.11 ng/mL and 4.49 ng/mL and 2.92 ng/mL
same,Blood Plasma Concentrations,"[2]; 4 mg once daily 7 days, time 156.0 h, mean",3.31 ng/mL
same,change in Cmax and AUC on doubling of the silodosin dose,[2]; 4 mg vs 8 mg once daily (Table 3),approximately two-fold increase
same,Blood Plasma Concentrations,"[2]; 8 mg once daily 7 days, Day 7, 0 h (t0), individual subjects",1.90 ng/mL and 4.15 ng/mL and 3.94 ng/mL and 4.87 ng/mL and 15.77 ng/mL and 8.04 ng/mL and 1.95 ng/mL and 6.99 ng/mL and 2.40 ng/mL
